Patent US20260250318A1, “COMPOSITIONS AND METHODS FOR CROSSING THE BLOOD BRAIN BARRIER” (VOYAGER THERAPEUTICS, INC., priority 2022, published 2026)

Target: T1, ALPL (Homo sapiens, UniProt P05186)
T1 sequence (P05186 18-501): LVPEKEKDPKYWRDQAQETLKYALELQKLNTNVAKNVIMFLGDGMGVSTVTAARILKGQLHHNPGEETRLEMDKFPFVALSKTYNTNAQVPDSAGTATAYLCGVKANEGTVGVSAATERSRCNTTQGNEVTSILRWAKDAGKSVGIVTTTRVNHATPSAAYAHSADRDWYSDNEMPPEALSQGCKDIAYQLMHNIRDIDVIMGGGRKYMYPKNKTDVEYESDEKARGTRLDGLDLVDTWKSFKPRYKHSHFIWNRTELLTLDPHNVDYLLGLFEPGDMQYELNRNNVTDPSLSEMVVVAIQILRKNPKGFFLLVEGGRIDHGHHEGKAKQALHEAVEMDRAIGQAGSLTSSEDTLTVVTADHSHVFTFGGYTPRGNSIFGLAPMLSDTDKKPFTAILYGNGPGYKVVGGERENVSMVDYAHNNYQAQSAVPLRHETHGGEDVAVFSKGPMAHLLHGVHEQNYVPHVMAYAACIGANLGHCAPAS
Assay: Inhibition of TTM-002 transduction by small molecule ALPL inhibitors in HeLa cells expressing ALPL
Assay type: cell-based
Set-up: endogenous in cells; host or cells: HeLa
Conditions: increasing inhibitor concentrations vs vehicle control

## COc1ccc(OC)c(S(=O)(=O)Nc2cnc3ccccc3c2)c1 [TNAPi, 2,5-Dimethoxy-N-(quinolin-3-yl)benzenesulfonamide]
  effect on TTM-002 transduction: significantly decreased TTM-002 transduction
